Test: Solubility and stability characteristics compared to human amylin
Type: physicochemical
Description: These preferred compounds include ^25Pro^26Val^28,29Pro-h-amylin, ^25,28,29Pro-h-amylin (also referred to herein as “AC-0137”), and ^18Arg^25,28Pro-h-amylin.

| solubility characteristics | stability characteristics | Structure (SMILES) |
| --- | --- | --- |
| more desirable | – | CC[C@H](C)[C@H](NC(=O)[C@@H]1CCCN1C(=O)CNC(=O)[C@H](Cc1ccccc1)NC(=O)[C@H](CC(N)=O)NC(=O)[C@H](CC(N)=O)NC(=O)[C@H](CO)NC(=O)[C@H](CO)NC(=O)[C@H](Cc1c[nH]cn1)NC(=O)[C@@H](NC(=O)[C@H](CC(C)C)NC(=O)[C@H](Cc1ccccc1)NC(=O)[C@H](CC(N)=O)NC(=O)[C@H](C)NC(=O)[C@H](CC(C)C)NC(=O)[C@H](CCCNC(=N)N)NC(=O)[C@H](CCC(N)=O)NC(=O)[C@@H](NC(=O)[C@H](C)NC(=O)[C@@H]1CSSC[C@H](NC(=O)[C@@H](N)CCCCN)C(=O)N[C@@H](CC(N)=O)C(=O)N[C@@H]([C@@H](C)O)C(=O)N[C@@H](C)C(=O)N[C@@H]([C@@H](C)O)C(=O)N1)[C@@H](C)O)C(C)C)C(=O)N[C@@H](CC(C)C)C(=O)N1CCC[C@H]1C(=O)N1CCC[C@H]1C(=O)N[C@H](C(=O)N[C@@H](CC(N)=O)C(=O)N[C@H](C(=O)NCC(=O)N[C@@H](CO)C(=O)N[C@@H](CC(N)=O)C(=O)N[C@H](C(=O)N[C@@H](Cc1ccc(O)cc1)C(N)=O)[C@@H](C)O)C(C)C)[C@@H](C)O [AC137, ^25,28,29Pro-h-amylin] |
| more desirable | more desirable | CC[C@H](C)[C@H](NC(=O)[C@@H]1CCCN1C(=O)CNC(=O)[C@H](Cc1ccccc1)NC(=O)[C@H](CC(N)=O)NC(=O)[C@H](CC(N)=O)NC(=O)[C@H](CO)NC(=O)[C@H](CO)NC(=O)[C@H](CCCNC(=N)N)NC(=O)[C@@H](NC(=O)[C@H](CC(C)C)NC(=O)[C@H](Cc1ccccc1)NC(=O)[C@H](CC(N)=O)NC(=O)[C@H](C)NC(=O)[C@H](CC(C)C)NC(=O)[C@H](CCCNC(=N)N)NC(=O)[C@H](CCC(N)=O)NC(=O)[C@@H](NC(=O)[C@H](C)NC(=O)[C@@H]1CSSC[C@H](NC(=O)[C@@H](N)CCCCN)C(=O)N[C@@H](CC(N)=O)C(=O)N[C@@H]([C@@H](C)O)C(=O)N[C@@H](C)C(=O)N[C@@H]([C@@H](C)O)C(=O)N1)[C@@H](C)O)C(C)C)C(=O)N[C@@H](CC(C)C)C(=O)N1CCC[C@H]1C(=O)N[C@@H](CO)C(=O)N[C@H](C(=O)N[C@@H](CC(N)=O)C(=O)N[C@H](C(=O)NCC(=O)N[C@@H](CO)C(=O)N[C@@H](CC(N)=O)C(=O)N[C@H](C(=O)N[C@@H](Cc1ccc(O)cc1)C(N)=O)[C@@H](C)O)C(C)C)[C@@H](C)O [^18Arg^25,28Pro-h-amylin] |
| more desirable | more desirable | CC(C)C[C@H](NC(=O)[C@H](CCCNC(=N)N)NC(=O)[C@H](CCC(N)=O)NC(=O)[C@@H](NC(=O)[C@H](C)NC(=O)[C@@H]1CSSC[C@H](NC(=O)[C@@H](N)CCCCN)C(=O)N[C@@H](CC(N)=O)C(=O)N[C@@H]([C@@H](C)O)C(=O)N[C@@H](C)C(=O)N[C@@H]([C@@H](C)O)C(=O)N1)[C@@H](C)O)C(=O)N[C@@H](C)C(=O)N[C@@H](CC(N)=O)C(=O)N[C@@H](Cc1ccccc1)C(=O)N[C@@H](CC(C)C)C(=O)N[C@H](C(=O)N[C@@H](Cc1c[nH]cn1)C(=O)N[C@@H](CO)C(=O)N[C@@H](CO)C(=O)N[C@@H](CC(N)=O)C(=O)N[C@@H](CC(N)=O)C(=O)N[C@@H](Cc1ccccc1)C(=O)NCC(=O)N1CCC[C@H]1C(=O)N[C@H](C(=O)N[C@@H](CC(C)C)C(=O)N1CCC[C@H]1C(=O)N1CCC[C@H]1C(=O)N[C@H](C(=O)N[C@@H](CC(N)=O)C(=O)N[C@H](C(=O)NCC(=O)N[C@@H](CO)C(=O)N[C@@H](CC(N)=O)C(=O)N[C@H](C(=O)N[C@@H](Cc1ccc(O)cc1)C(N)=O)[C@@H](C)O)C(C)C)[C@@H](C)O)C(C)C)C(C)C [^25Pro^26Val^28,29Pro-h-amylin] |
